Tested on: fibrocystin cleavage in HEK-293(m3) cells
Details: 100 μM carbachol, 16 hours, FIG. 4E
Method: FIG. 4 A is an image of a gel illustrating mIMCD3/FC cells were grown for 4 days and incubated with 0.1 μM thapsigargin (lane 2), 5 mM caffeine (lane 3), 75 μM dantrolene (lane 5), 200 μM ruthenium red (lane 7), or no additions (lanes 1, 4 and 6). After 2 hours, media were replaced with media lacking serum but containing the same supplements, and, in addition, 10 nM mifeprisone. Cell lysates were prepared after 24 hours and analyzed by immunoblotting using anti-V5 antibody. FIG. 4B is a graph of mIMCD-3 cells were transfected with 0.2 μg pG5-luc and either 0.2 μg pFC-GV or 0.2 μg pLDLR-GV. After 24 hours, cells were incubated in serum-free media in the presence or absence of 75 μM dantrolene. Relative luciferase activity was determined after 48 h. Data presented are mean ±SE of three separate transfections. The fibrocystin/Gal4-VP16 fusion protein is shown schematically below. Shaded box indicates the transmembrane segment; filled boxes indicate the N-terminal signal sequence and the C-terminal Gal4-VP16 fusion protein. […] Cells were lysed after 16 h, and extracts were analyzed by immunoblotting using anti-V5 antibody. […] Luciferase activity was measured after 12 hours. […] Cells were lysed after 16 hours, and extracts were analyzed by immunoblotting using anti-V5 antibody.

**Q.** How did the fibrocystin cleavage turn out when C[N+](C)(C)CCOC(N)=O [carbachol] was run?
**A.** induced fibrocystin cleavage

Reference: patent US20080045495A1, “Treatment of Patients with Cystic Disease by Alteration of Fibrocystin Proteolysis” (BOARD OF REGENTS, THE UNIVERSITY OF TEXAS SYSTEM, priority 2006, published 2008)
